The values that follow come from PubChem BioAssay AID602248 (The Scripps Research Institute Molecular Screening Center, 2012).

The list shows a part of the results, in another mix than the full data. The source made the active and inactive calls. Rule as the data show it: active = activation above about 15%; inactive = the rest.

This test can be described thus: counter-screen for M1 agonists: effect in parental CHO-K1 cells (AID 602248).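 Also: untransfected CHO-K1 host cells lacking M1 receptor as counterscreen.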 Conditions: Fluo-8 calcium fluorescence, at 3 µM, stronger effect = higher value, scaled to maximal ATP response, vehicle zero. For orientation: A counterscreen serves to expose hits that act by an unwanted route or on another target.
With `CCN(N=Nc1nonc1N)c1nonc1N`, the activation was inactive: 1.14%.
To `O=C(Nc1cc([As](=O)(O)O)ccc1O)c1ccccc1` belongs inactive: 0.86%; to `O=P1(N(CCCl)CCCl)OCCCS1` (stereo not drawn), inactive: 0.93%; to `C/C=C1/C[C@@H](C)[C@](O)(CO)C(=O)OCC2=CCN3CC[C@@H](OC1=O)[C@@H]23`, inactive: -0.27%.
To `O=C(O)CNc1ccc([As](=O)(O)O)cc1` belongs inactive: 0.22%; to `O=[N+]([O-])c1cccc(NC2=NCC(CBr)S2)c1` (stereo not drawn), inactive: 0.72%.
To `COC(=O)C1(C)COP(=O)(Nc2ccccc2)OC1` (stereo not drawn) belongs inactive: 1.09%; to `O=[N+]([O-])c1ncn(CCn2ncnc2[N+](=O)[O-])n1`, inactive: 1.31%; to `CC(C)(C)C(=O)NC(Sc1ccncn1)C(Cl)(Cl)Cl` (stereo not drawn), inactive: 0.06%.
Consider `O=[N+]([O-])c1cc([N+](=O)[O-])c(CCNc2ccccc2)c([N+](=O)[O-])c1`, for which the activation was inactive: 0.27%.
As for `CCc1nc2c(n1)c1c(non1O)c1c2no[n+]1[O-]`, the figure is inactive: 8.59%; as for `Cc1ccc(NP(=O)(Oc2ccccc2)Oc2ccccc2)nc1`, inactive: 0.49%; as for `CC(=O)N1C2C3N(C(C)=O)C1C1N(C(C)=O)C(C(N1C(C)=O)N3C(C)=O)N2C(C)=O`, inactive: 1.01%.
As for `O=[N+]([O-])c1cccc2n[nH]nc12`, the figure is inactive: -0.3%.
As for `COc1ccc(C2=NCC(CBr)S2)cc1` (stereo not drawn), the figure is inactive: 2.58%.
Consider `c1cc(-c2nn[nH]n2)ccc1-c1nn[nH]n1`, for which the activation was inactive: -0.12%.
Take `CC1CCN(C(=O)Oc2c(Cl)cc(Cl)c3cccnc23)CC1`: the activation was inactive: 0.49%.
To `CN(C)C(=O)OCCc1n(C)cc[n+]1C` belongs inactive: 0.64%; to `CC(C)=N/N=C(\N)N[N+](=O)[O-]`, inactive: 1.08%.
To `CC(C)c1nc(Nc2ccccc2)n(P(=O)(N(C)C)N(C)C)n1` belongs inactive: -0.15%; to `CCN(/C(=N/P(=O)(N1CCOCC1)N1CCOCC1)N1CCOCC1)c1ccc(OC)cc1`, inactive: 0.9%.
As for `C[N+]1=C2C=CC=CC=C2SC12C([N+](=O)[O-])=CC([N+](=O)[O-])=C[C-]2[N+](=O)[O-]` (stereo not drawn), the figure is inactive: 3.92%.
With `Nc1ccc([As](=O)(O)c2ccc(N)cc2)cc1`, the activation was inactive: 0.61%.
